Consider 11 compounds from PubChem BioAssay AID1645856 (Buhrlage Lab, Dana-Farber Cancer Institute and Novartis …, 2021).

Chains of the proteins cited; added tags and fusions are not shown.
UniProt Q14694, whole entry, looked up: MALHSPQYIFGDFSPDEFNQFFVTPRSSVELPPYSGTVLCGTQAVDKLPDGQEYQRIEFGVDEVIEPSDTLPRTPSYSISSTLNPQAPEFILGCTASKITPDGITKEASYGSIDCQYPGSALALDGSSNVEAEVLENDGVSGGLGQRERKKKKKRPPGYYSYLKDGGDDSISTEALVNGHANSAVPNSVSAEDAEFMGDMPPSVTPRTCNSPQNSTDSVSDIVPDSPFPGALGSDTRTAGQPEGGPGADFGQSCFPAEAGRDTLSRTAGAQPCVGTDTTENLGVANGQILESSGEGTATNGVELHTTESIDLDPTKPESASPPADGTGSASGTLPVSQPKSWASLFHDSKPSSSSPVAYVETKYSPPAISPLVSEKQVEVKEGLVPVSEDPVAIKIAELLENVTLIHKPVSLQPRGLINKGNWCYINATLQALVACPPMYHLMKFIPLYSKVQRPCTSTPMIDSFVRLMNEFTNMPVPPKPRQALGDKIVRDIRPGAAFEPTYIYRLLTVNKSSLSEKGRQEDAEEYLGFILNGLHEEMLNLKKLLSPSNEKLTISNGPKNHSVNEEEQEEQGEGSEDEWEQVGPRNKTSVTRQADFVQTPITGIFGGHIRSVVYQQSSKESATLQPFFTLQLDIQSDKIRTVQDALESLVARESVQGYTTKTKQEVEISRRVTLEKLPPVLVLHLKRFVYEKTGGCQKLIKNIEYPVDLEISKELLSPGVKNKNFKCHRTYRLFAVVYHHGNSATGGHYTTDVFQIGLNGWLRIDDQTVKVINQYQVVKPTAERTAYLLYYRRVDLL

The entries are a selection whose mix differs from that of the whole data set. Active and inactive are the calls of the source. Cut-off read from the data, not from the text of the source: active = inhibition above about 30%; inactive = the rest.

The target in this assay is Ubiquitin carboxyl-terminal hydrolase 10 (Homo sapiens) (UniProt Q14694). The experiment in a line: inhibitors of human USP10 deubiquitinase (AID 1645856). Particulars: purified USP10, Ub-rhodamine fluorescence, 60 min; at 20 µM; stronger effect = higher value.
For `N#Cc1cccc(C(=O)N(Cc2ccco2)C2CCN(CCc3ccc(Cl)cc3)CC2)c1`, the inhibition (usually the relative decrease from the control value, in per cent) was inactive: -2.17%.

Take `Cc1[nH]c2c(N(C(=O)Nc3ccccc3)C3CCN(Cc4ccccc4)CC3)cccc2c1C`: the inhibition is inactive: -7.1%.

As to `COc1ccc(CCN2CCC(N(Cc3cccnc3)C(=O)c3cccc(C#N)c3)CC2)cc1`, the inhibition was inactive: -4.7%.

Take `O=C(c1ccc2c(c1)OCO2)N(Cc1ccco1)C1CCN(CCc2ccccn2)CC1`: the inhibition is inactive: -4.02%.

For `O=C(COC(=O)C(O)(c1ccccc1)c1ccccc1)NCc1ccc2c(c1)OCO2`, the inhibition was inactive: -3.44%.

As to `CS(=O)(=O)c1ccc(C(=O)N(Cc2ccco2)C2CCN(CCc3ccccn3)CC2)cc1`, the inhibition is inactive: -14.1%.

Turning to `N#Cc1cccc(C(=O)N(Cc2cccnc2)C2CCN(CCc3ccccn3)CC2)c1`, the inhibition was inactive: -7.76%.

On to `CS(=O)(=O)c1ccc(C(=O)N(Cc2cccnc2)C2CCN(CCc3ccc(Cl)cc3)CC2)cc1`, for which the inhibition is inactive: -2.57%.

Take `COc1ccc(CCN2CCC(N(Cc3ccco3)C(=O)c3ccc(S(C)(=O)=O)cc3)CC2)cc1`: the inhibition is inactive: -4.26%.

For `CN1C(=O)C2C(NC(=NCc3ccco3)N2CCc2ccccc2)N(C)C1=O` (stereo unspecified), the inhibition was inactive: -4.81%.

Consider `N#Cc1cccc(C(=O)N(Cc2ccco2)C2CCN(CCc3ccccn3)CC2)c1`, for which the inhibition is inactive: -2.56%.
